Here are results for 15 compounds from ChEMBL document CHEMBL1144273, “Synthesis and SAR studies of 3-phenoxypropyl piperidine analogues as ORL1 (NOP) receptor agonists” (Bioorg Med Chem Lett, 2005).

Chains of the proteins cited; added tags and fusions are not shown. Lines headed by an entry give the natural chain unless they say otherwise; changes in a name come on top.
UniProt P41146: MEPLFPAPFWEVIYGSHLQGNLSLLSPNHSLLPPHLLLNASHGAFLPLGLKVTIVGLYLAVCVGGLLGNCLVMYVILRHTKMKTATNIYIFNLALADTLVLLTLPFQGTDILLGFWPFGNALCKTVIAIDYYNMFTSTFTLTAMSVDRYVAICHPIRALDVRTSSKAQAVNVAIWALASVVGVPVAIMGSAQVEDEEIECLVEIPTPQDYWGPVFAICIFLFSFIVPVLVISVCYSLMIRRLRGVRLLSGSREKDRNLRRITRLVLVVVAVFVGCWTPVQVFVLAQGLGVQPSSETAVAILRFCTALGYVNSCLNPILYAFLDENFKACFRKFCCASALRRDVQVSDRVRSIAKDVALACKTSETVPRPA

The assay addresses Nociceptin receptor (Homo sapiens) (UniProt P41146). The assay can be described thus: Percent NC (nociceptin) response was measured by cellular decreases in forskolin stimulated cAMP in CHO cells stably transfected with hORL1 receptor.

Consider `CCCC(Oc1cc(C)ccc1Cl)C(O)CN1CCC(n2c(O)nc3ccccc32)CC1` (stereo not given), for which the Response was 97%.

Compound `Cc1ccc(Cl)c(OC2(C(O)CN3CCC(n4c(O)nc5ccccc54)CC3)CCCCC2)c1` (stereo not given) had a Response of 82%.

In turn, `Cc1ccc(Cl)c(OC(CCN2CCC(n3c(O)nc4ccccc43)CC2)C(C)C)c1` (stereo not given) gave a Response of 101%.

Turning to `Cc1ccc(N)cc1OC(CCN1CCC(n2c(O)nc3ccccc32)CC1)C(C)C` (stereo not given), the Response stood at 104%.

On to `Cc1ccc(Cl)c(OC(c2ccccc2)C(O)CN2CCC(n3c(O)nc4ccccc43)CC2)c1` (stereo not given), for which the Response was determined as 93%.

`Cc1ccc(Cl)c(OC(CCN2CCC(n3c(O)nc4ccccc43)CC2)c2ccccc2)c1` (stereo not given) registered a Response of 81%.

`Cc1ccc(Cl)c(OC(CC(C)C)C(O)CN2CCC(n3c(O)nc4ccccc43)CC2)c1` (stereo not given) gave a Response of 88%.

With `Cc1cc(F)ccc1OC(CCN1CCC(n2c(O)nc3ccccc32)CC1)C(C)C` (stereo not given), the Response was found to be 67%.

As for `Cc1ccc(C)c(OC(CCN2CCC(n3c(O)nc4ccccc43)CC2)C(C)C)c1` (stereo not given), the Response was 89%.

The compound `CC(C)C(CCN1CCC(n2c(O)nc3ccccc32)CC1)Oc1cc(F)ccc1Cl` (stereo not given) registered a Response of 51%.

Compound `Cc1ccc(F)c(OC(CCN2CCC(n3c(O)nc4ccccc43)CC2)C(C)C)c1` (stereo not given) had a Response of 70%.

In turn, `COc1ccc(Cl)c(OC(CCN2CCC(n3c(O)nc4ccccc43)CC2)C(C)C)c1` (stereo not given) had a Response of 101%.

`CC(C)C(CCN1CCC(n2c(O)nc3ccccc32)CC1)Oc1ccccc1C(F)(F)F` (stereo not given) came in with a Response of 79%.

As to `Cc1cc(OC(CCN2CCC(n3c(O)nc4ccccc43)CC2)C(C)C)ccc1F` (stereo not given), the Response came to 78%.

In turn, `Cc1ccc([N+](=O)[O-])c(OC(CCN2CCC(n3c(O)nc4ccccc43)CC2)C(C)C)c1` (stereo not given) had a Response of 58%.
